Kd data for one substance are collected here from PMC5639367, “Structure‐Guided Design of Peptides as Tools to Probe the Protein–Protein Interaction between Cullin‐2 and Elongin BC Substrate Adaptor in Cullin RING E3 Ubiquitin Ligases” (Chemmedchem, 2017).

Chains of the proteins cited; added tags and fusions are not shown.
UniProt P40337, whole entry, chain 1 of 3: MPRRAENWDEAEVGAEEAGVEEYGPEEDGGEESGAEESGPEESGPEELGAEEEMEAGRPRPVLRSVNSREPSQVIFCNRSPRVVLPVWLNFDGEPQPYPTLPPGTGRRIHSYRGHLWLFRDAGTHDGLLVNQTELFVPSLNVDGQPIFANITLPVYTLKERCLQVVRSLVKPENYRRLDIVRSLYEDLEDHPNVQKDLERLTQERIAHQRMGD
UniProt Q13617, whole entry, looked up, tested part not stated: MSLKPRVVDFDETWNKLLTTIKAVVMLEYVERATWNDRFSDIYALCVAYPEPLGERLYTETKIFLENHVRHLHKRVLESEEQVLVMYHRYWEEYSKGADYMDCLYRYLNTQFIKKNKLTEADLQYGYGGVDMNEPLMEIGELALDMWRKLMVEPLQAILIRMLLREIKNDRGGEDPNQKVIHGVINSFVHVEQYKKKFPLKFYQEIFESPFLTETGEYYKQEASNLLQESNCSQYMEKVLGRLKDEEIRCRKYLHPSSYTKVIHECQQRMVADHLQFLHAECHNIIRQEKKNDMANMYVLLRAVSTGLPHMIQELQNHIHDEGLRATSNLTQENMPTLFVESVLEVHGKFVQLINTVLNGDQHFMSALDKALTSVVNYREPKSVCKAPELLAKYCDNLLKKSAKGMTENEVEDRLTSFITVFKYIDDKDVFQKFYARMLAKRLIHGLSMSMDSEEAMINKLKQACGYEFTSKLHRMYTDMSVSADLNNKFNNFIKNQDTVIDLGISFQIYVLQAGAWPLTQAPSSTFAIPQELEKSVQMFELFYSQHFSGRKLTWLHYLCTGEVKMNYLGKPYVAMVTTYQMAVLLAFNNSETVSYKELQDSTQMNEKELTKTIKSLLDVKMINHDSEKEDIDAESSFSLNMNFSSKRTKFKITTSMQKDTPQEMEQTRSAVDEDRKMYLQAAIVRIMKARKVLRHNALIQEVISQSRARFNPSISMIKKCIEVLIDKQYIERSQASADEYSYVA

The experiment has as its target VBC ternary complex (pVHL, Elongin B, Elongin C) (UniProt P40337). Description: BLI; biotinylated VBC (25 ug/mL) immobilised on Super Streptavidin biosensors, peptides titrated; Octet RED384; 25 °C; 20 mM HEPES pH 7.6, 100 mM NaCl, 1 mM DTT, 0.02 % Tween-20; reference tips subtracted; 1:1 model.

For orientation: Kd means a measure of binding affinity in units of concentration. “peptide B (8-mer Cul2 peptide, Leu3 replaced by tryptophan) (from UniProt Q13617 1-8)” displayed a Kd of 18 mM.
